Earlier results in patent US20040132806A1, “Pravastatin pharmaceutical formulations and methods of their use” (priority 2002, published 2004).

Target: T1, HMG-CoA reductase (Homo sapiens, UniProt P04035)
T1 sequence (P04035 1-888): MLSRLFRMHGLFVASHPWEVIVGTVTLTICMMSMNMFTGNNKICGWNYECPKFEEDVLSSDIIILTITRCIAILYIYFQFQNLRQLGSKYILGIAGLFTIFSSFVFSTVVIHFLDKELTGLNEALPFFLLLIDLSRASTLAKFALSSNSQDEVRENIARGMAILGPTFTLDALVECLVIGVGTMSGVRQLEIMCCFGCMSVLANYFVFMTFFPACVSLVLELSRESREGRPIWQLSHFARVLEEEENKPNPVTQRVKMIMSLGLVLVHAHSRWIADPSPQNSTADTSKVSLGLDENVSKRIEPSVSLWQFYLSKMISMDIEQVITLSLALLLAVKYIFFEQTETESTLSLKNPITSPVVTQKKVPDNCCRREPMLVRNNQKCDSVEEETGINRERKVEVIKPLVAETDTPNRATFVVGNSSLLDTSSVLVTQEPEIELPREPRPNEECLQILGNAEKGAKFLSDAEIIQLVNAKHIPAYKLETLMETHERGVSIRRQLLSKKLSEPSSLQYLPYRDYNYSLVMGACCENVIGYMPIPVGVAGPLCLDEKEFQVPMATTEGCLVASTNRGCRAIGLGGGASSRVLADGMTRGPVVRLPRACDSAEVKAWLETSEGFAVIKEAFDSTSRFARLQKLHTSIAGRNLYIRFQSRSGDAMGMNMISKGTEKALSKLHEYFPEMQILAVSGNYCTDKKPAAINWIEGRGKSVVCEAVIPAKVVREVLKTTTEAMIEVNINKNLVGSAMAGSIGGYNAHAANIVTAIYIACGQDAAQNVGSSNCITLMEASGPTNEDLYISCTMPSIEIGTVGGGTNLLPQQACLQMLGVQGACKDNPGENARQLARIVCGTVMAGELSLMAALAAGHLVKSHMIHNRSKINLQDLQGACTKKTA
Conditions: fraction of pravastatin's activity

For `CCC(C)C(=O)O[C@H]1CC=CC2=C[C@H](O)[C@H](C)[C@H](CC[C@@H](O)C[C@@H](O)CC(=O)O)[C@H]21` (single isomer, unassigned) [3α-hydroxy isomeric metabolite, 3α-hydroxyisomer of pravastatin], the “HMG-CoA reductase inhibitory activity relative to the parent compound” value is listed as “one-tenth to one-fortieth”.
